The assay deals with Phosphatidylinositol 4,5-bisphosphate 3-kinase catalytic subunit alpha isoform (Homo sapiens, UniProt P42336). In words: Inhibition of PI3Kalpha. The essentials:
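Fluorescence polarization assays for PI3K-α (p110α) and PI3K-γ (p110γ) monitored PIP3 production.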

Protein sequences, listed by entry. Tags and fused reporters are not part of them.
UniProt P42336, whole entry: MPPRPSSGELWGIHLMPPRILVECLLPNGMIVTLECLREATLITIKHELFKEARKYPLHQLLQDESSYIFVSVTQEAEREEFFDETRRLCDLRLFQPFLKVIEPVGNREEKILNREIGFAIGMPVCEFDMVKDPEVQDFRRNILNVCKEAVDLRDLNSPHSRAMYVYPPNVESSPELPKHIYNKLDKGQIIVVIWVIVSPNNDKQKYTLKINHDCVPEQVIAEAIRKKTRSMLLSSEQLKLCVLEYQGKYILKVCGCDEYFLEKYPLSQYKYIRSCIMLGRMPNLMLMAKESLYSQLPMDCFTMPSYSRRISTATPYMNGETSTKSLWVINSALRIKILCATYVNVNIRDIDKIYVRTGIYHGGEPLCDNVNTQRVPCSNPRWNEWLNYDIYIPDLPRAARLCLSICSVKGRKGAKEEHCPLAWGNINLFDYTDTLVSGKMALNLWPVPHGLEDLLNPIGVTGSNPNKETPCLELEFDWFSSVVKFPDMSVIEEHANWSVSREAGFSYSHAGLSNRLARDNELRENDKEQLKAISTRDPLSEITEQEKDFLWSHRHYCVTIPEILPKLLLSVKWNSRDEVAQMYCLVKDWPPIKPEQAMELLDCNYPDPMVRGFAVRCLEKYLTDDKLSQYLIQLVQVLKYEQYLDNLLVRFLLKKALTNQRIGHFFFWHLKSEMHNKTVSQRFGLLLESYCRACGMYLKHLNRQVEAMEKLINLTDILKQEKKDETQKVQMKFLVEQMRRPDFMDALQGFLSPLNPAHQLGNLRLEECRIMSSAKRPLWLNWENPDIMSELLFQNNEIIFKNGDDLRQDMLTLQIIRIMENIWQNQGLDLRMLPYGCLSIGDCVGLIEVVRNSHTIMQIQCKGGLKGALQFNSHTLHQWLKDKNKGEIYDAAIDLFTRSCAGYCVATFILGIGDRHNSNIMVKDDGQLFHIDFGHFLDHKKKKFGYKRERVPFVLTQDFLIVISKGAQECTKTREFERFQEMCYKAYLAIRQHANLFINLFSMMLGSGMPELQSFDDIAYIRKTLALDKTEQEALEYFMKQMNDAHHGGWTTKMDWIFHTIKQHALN

Our source for the IC50 values is ChEMBL document CHEMBL1156153, “Novel benzofuran-3-one indole inhibitors of PI3 kinase-alpha and the mammalian target of rapamycin: hit to lead studies” (Bioorg Med Chem Lett, 2010).

`COc1ccc2[nH]c(-c3ccccc3)c(/C=C3\Oc4cc(O)cc(O)c4C3=O)c2c1` came in with an IC50 of 2 nM. That is a single-digit nanomolar value.

One may read the IC50 as the concentration needed to halve the response being measured.
